Drawing on ChEMBL document CHEMBL5543070, “Structure-activity relationship study of 1,6-naphthyridinone derivatives as selective type II AXL inhibitors with potent antitumor efficacy” (Eur J Med Chem, 2024), this text covers inhibition for one compound.

Each structure is given as a SMILES string.

For assay [1], the target named is T1, Tyrosine-protein kinase Mer (Homo sapiens) (UniProt Q12866).
T1 sequence (whole entry): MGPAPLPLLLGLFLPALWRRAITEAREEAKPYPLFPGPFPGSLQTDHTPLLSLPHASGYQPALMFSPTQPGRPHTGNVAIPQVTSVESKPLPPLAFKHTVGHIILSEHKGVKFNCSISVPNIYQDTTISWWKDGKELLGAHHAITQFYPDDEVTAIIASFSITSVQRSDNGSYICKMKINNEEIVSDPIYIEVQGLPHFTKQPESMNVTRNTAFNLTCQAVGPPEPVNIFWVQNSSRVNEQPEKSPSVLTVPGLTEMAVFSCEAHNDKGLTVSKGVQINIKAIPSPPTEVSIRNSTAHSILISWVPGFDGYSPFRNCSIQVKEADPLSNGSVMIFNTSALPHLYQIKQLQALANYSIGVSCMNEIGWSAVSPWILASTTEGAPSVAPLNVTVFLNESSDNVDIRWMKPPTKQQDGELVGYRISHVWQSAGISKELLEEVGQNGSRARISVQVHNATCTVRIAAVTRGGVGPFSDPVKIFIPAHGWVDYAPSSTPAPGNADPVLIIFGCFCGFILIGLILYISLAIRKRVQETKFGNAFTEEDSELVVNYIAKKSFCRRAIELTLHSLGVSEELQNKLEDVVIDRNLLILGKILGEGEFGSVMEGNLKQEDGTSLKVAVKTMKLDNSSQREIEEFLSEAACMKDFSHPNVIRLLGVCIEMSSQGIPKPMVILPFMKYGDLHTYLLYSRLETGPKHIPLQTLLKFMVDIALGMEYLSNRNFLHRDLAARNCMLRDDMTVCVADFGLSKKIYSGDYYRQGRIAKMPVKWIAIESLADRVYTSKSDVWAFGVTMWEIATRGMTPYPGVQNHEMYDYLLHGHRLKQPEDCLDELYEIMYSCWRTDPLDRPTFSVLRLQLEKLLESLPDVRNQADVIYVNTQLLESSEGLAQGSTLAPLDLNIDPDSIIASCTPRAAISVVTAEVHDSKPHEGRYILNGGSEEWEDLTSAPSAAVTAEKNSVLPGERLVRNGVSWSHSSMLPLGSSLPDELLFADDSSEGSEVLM
Kind of assay: Inhibition of MER (unknown origin) at 1 uM relative to control.

The target in assay [2] is T2, Tyrosine-protein kinase receptor TYRO3 (Homo sapiens) (UniProt Q06418).
T2 sequence (whole entry): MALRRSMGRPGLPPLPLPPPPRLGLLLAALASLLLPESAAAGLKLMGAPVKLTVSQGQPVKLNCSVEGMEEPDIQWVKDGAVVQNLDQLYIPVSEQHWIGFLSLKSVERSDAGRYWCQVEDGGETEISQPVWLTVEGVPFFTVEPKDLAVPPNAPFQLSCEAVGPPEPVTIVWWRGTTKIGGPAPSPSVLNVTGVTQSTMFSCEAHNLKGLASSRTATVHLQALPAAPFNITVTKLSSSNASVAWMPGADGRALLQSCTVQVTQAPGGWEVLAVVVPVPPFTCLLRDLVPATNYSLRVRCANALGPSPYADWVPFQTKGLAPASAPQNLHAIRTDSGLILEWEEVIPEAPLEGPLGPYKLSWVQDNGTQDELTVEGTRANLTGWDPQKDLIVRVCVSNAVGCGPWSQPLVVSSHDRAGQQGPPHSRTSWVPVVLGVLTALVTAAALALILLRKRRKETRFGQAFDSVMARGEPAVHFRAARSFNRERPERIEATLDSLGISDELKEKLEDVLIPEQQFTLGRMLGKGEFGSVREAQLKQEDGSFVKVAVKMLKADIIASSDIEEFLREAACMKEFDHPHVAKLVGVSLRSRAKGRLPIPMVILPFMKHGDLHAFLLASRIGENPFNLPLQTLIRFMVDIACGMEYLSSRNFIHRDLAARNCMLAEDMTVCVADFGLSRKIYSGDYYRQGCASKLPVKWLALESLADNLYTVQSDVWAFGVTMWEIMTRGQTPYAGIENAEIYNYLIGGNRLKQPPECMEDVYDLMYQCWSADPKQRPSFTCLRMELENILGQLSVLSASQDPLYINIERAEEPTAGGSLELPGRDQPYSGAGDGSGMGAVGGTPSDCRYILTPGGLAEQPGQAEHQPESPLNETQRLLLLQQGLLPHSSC
Kind of assay: Inhibition of TYRO3 (unknown origin) at 1 uM relative to control.

The term inhibition denotes the share of the control response that was lost under treatment. High values mean a response far below the control, low ones a response near the control. For `COc1cc2ncnc(Oc3ccc(Nc4nccc5c4c(=O)c(-c4cccc(C)c4)cn5C)cc3F)c2cc1OC`, the inhibition came out at 97% in assay [1] and 91% in assay [2].
